The term IC50 denotes the concentration that gives 50% inhibition.

The experiment deals with T-47D cells. Kind of experiment: Cell viability assay (ATPlite). The experiment is classed as cell-based. The following applies: Homo sapiens, T47D, 96-hours of incubation, read-out: Cell Growth, IC50.

Each structure is given as a SMILES string.

Take `C/C(=N\NC(=O)c1cccc(S(=O)(=O)N(C)C)c1)c1cc(Cl)ccc1O` [Compound 18]: the half-inhibitory concentration (IC50) worked out at 565 nM.

As to `C/C(=N\NC(=O)c1ccccc1)c1cc(Cl)ccc1O` [Compound 11], the IC50 came to 352 nM.
